Experimental data as given in patent US5567692A, “9-[(substituted glycyl) amido)]-6-demethyl-6-deoxytetracyclines” (priority 1995, dated 1996).

System: S30 extract from derivative of MRE600 containing the tetM determinant, TetM modified ribosomes
Assay: E. coli in vitro protein translation system, Tet M S30
Conditions: for inhibition of protein synthesis occurring on tetM modified ribosomes (in words): coupled transcription and translation system

| SMILES | % Inhibition Tet M S30 (Conc. 0.06 mg/ml) [%] | % Inhibition Tet M S30 (Conc. 1.0 mg/ml) [%] | inhibition of protein synthesis occurring on tetM modified ribosomes (in words) |
| --- | --- | --- | --- |
| CN(C)CC(=O)Nc1ccc2c(c1O)C(=O)C1=C(O)[C@]3(O)C(=O)C(C(N)=O)=C(O)[C@@H](N(C)C)C3CC1C2 (stereo partly drawn) [CC, [4S-(4alpha,12aalpha)]-4-(Dimethylamino)-9-[[(dimethylamino)acetyl]amino]-1,4,4a,5,5a,6,11,12a-octahydro-3,10,12,12a-tetrahydroxy-1,11-dioxo-2-naphthacenecarboxamide dihydrochloride] | 82 | 99 | effective |
| CCCCNCC(=O)Nc1ccc2c(c1O)C(=O)C1=C(O)[C@]3(O)C(=O)C(C(N)=O)=C(O)[C@@H](N(C)C)C3CC1C2 (stereo partly drawn) [H, [4S-(4alpha,12aalpha)]-9-[[(Butylamino)acetyl]amino]-4-(dimethylamino)-1,4,4a,5,5a,6,11,12a-octahydro-3,10,12,12a-tetrahydroxy-1,11-dioxo-2-naphthacenecarboxamide dihydrochloride] | 72 | 98 |  |
| CN(C)c1ccc(O)c2c1C[C@H]1C[C@H]3[C@H](N(C)C)C(O)=C(C(N)=O)C(=O)[C@@]3(O)C(O)=C1C2=O [U, Minocycline, reference compound] | 0 | 68 | not effective |

Structures can show the parent of a compound that is named as a salt.
